Chains of the proteins cited; added tags and fusions are not shown.
Melanocortin receptor 4 (Homo sapiens), P32245, UniProt P32245, whole entry, looked up: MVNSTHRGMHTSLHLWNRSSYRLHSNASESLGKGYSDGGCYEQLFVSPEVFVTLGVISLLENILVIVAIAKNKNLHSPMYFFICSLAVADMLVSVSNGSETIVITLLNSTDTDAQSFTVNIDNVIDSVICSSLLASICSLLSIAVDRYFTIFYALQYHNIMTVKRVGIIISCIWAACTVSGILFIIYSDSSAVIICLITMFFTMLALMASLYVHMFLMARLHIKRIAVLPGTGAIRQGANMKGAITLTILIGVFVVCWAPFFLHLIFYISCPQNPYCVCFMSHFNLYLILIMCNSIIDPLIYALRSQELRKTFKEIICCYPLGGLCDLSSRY

# Screening data from PubChem.
# Hits are enriched below; roughly 4.2% of the tested compounds scored in any of these assays.
# HDAC3 inhib = HDAC3 deacetylase inhibitors, primary screen, biochemical, fluorescence, cell-free homogeneous; Histone deacetylase 3 (Homo sapiens), O15379; recombinant HDAC3, fluorogenic peptide/trypsin coupled; inhibition, % at 8.3 µM; actives 0.15% (n = 320,000); in the data active means inhibition above about 26%, passing the limit was not always enough
# MC4R barr agon = MC4R agonists recruiting beta-arrestin, primary screen, cell-based, luminescence, agonist arm of biased-ligand search; AID 540308, 2011; activation, % at 8.9 µM; Melanocortin receptor 4 (Homo sapiens), P32245; U2OS MC4R beta-arrestin complementation; percent of melanotan II response, DMSO zero; actives 0.98% (n = 360,000);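 active means activation above a per-plate cutoff, the mean activation of sample wells on that plate plus 3 SD, cut at about 8% in these data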
# MC4R antag cAMP = MC4R antagonists of cAMP signaling, primary screen, cell-based, TR-FRET, antagonist arm of biased-ligand search; inhibition, % at 6.5 µM; actives 0.48% (n = 360,000); AID 540295, 2011; Melanocortin receptor 4 (Homo sapiens), P32245; MC4R-expressing cells, MTII-stimulated cAMP, LANCE TR-FRET;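 active means inhibition above its plate's cutoff, the mean of tested wells on that plate plus 3 SD, cut at about 29% in these data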
#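 Material: U2OS-MC4R stable cell line | Reagent: Melanotan II challenge after compound preincubation | Doses: One concentration, 6.5 µM nominal | Incubation: 30-min compound preincubation, 1-h Melanotan II challenge, 1-h detection, room temperature | Signal: TR-FRET cAMP assay | Replicates: One well per compound, no replicates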
# Yeast UUG start = yeast start codon fidelity modulation | S. cerevisiae UUG-firefly luciferase reporter, luminescence/redox ratio | activity score, % at 18.7 µM | hit rate 0.13% among 350,000 | AID 602363;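 active means replicate mean at a twofold rise or more, about +100% in these data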;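 further: firefly luciferase made from a UUG start codon reports start codon fidelity; reporter light over untreated wells divided by growth signal over untreated wells; some hits fall short of that in this replicate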
# ALR H2O2 inh = inhibitors of human sulfhydryl oxidase ALR; P55789; purified ALR, DTT oxidation, H2O2 HRP-luminol luminescence; inhibition, % (test concentration not listed); hit rate 3.8% among 290,000; AID 485317;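 active = mean and each replicate at 75% or more; inconclusive = only one of the two met; inactive = neither met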;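 also: stock transfer was 7.5 nL into about 7.5 µL; 0% = neutral wells and 100% = wells with inactivated enzyme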
# NALP1 yeast inh = NALP1 inflammasome inhibitors in reconstituted yeast, colorimetric, S. cerevisiae, triplicate retest. inhibition, % at 10 µM. S. cerevisiae NALP1/ASC/caspase-1 growth, X-gal OD620, 72 h. AID 2071, 2009. actives 0.61% (n = 280,000); in the data active means inhibition mostly above about 24%, no sharp cut-off; inactive means mostly below about 32%
# MC4R barr conf = MC4R beta-arrestin agonists, retest, confirmation, cell-based, luminescence, U2OS; actives 31% (n = 2,400); shares compounds with MC4R barr agon; activation, % at 8.9 µM; U2OS MC4R beta-arrestin recruitment; scaled DMSO 0%, Melanotan II 100%; AID 602192, 2012;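 active means mean activation across replicates above the hit cutoff set in the earlier primary screen, cut at about 8% in these data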
# MOR-DOR barr ag = agonists of MOR-DOR heterodimerization, counter-screen for MC4R biased agonist project, cell-based, luminescence. shares compounds with MC4R barr agon. activation, % at 9.2 µM. actives 5.8% (n = 2,400). U2OS PathHunter beta-arrestin, beta-gal luminescence; percent of deltorphin B response, DMSO zero;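 active means mean activation across replicates exceeds the hit threshold derived in the earlier primary screen, cut at about 18% in these data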
# Numbers stand for hits; . = inactive; / = not tested or not shown.
SMILES,HDAC3 inhib,MC4R barr agon,MC4R antag cAMP,Yeast UUG start,ALR H2O2 inh,NALP1 yeast inh,MC4R barr conf,MOR-DOR barr ag
Cc1cc(C)nc(SCC(=O)Nc2ncc(Cc3ccc(Cl)c(Cl)c3)s2)n1,.,21,.,.,.,.,.,.
Cc1nc(Nc2ccc(F)cc2)nc(Nc2ccc(F)cc2)c1[N+](=O)[O-],.,13,.,/,.,.,.,.
Cc1noc(C)c1NC(=O)Nc1ccc2c(c1)C(=O)N([C@@H](C)CO)C[C@H](C)[C@H](CN(C)S(=O)(=O)c1cn(C)cn1)O2,/,/,/,.,/,/,/,/
COc1ccc(/C=C/C(=O)Nc2sc(Cc3ccccc3)c(C)c2C(N)=O)cc1,.,25,.,/,/,.,16,.
Cc1c(Cc2ccccc2)sc(NC(=O)Cc2ccccc2)c1C(N)=O,.,11,.,.,.,/,.,.
Cc1noc(C)c1S(=O)(=O)Nc1ccc2c(c1)C(=O)N([C@@H](C)CO)C[C@@H](C)[C@H](CN(C)C(=O)NC(C)C)OCCCC[C@H](C)O2,/,/,/,.,/,/,/,/
C/C(=N/OCO/N=C(\C)c1ccccc1F)c1ccccc1F,.,9.6,.,.,.,.,.,.
C[C@H]1CCCCO[C@H](CN(C)C(=O)Nc2cccc3ccccc23)[C@@H](C)CN([C@@H](C)CO)C(=O)c2cc(NC(=O)C3CCCCC3)ccc2O1,/,/,/,.,/,/,/,/
CCOc1ccc2nc(NC(=O)c3cccc(-c4cc5ccccc5oc4=O)c3)sc2c1,.,24,.,/,/,.,13,.
Cc1ccc2nc(NC(=O)c3cccc(-c4cc5ccccc5oc4=O)c3)sc2c1,.,/,/,/,.,.,/,/
COC(=O)c1cccc(NC(=O)c2nn(C(C)C)c(=O)c3ccccc23)c1,.,14,.,/,.,.,.,.
CCCCCCn1c(C)nc2c(c1=O)c1nc3ccccc3nc1n2/N=C/c1ccco1,.,25,.,.,.,.,.,.
CNS(=O)(=O)c1cccc(C(=O)OCC(=O)Nc2ccc(-c3nc4ccc(C)cc4s3)cc2)c1,.,16,.,/,.,.,.,.
CC(NS(=O)(=O)c1cccc(Cl)c1)C(=O)Nc1ccc(-c2nc3ccccc3s2)cc1 (stereo not drawn),.,16,.,.,.,.,9.9,.
CC(=O)Nc1nc(COc2ccccc2)cs1,.,.,.,.,.,.,/,/
COc1cccc(OC)c1C(=O)Nc1nc(COc2ccccc2)cs1,.,12,.,.,.,.,.,.
COCCNC(=O)C[C@H]1CC[C@H]2[C@H](COc3ccc(NC(=O)C4CCCC4)cc3C(=O)N2C)O1,/,/,/,.,/,/,/,/
Cc1cc(C)c2nc(-n3nc(C)cc3N)cc(C)c2c1,.,15,.,/,.,.,.,.
Cc1cc(N)n(-c2cc(C)c3ccccc3n2)n1,.,.,.,/,/,.,/,/
Cc1cc(C)c2sc(N(CCCN(C)C)C(=O)COc3ccc(Cl)cc3)nc2c1,.,11,.,.,.,.,25,.
COc1cccc(-c2ccc(C#N)c(OC(=O)c3ccc(Cl)cc3)n2)c1,.,.,.,.,.,.,/,/
COc1ccc(-c2ccc(C#N)c(SCC(=O)NCCc3ccccc3)n2)cc1OC,.,12,.,/,.,.,.,.
COc1cccc(-c2ccc(C#N)c(SCC(=O)NCCc3cccc(Cl)c3)n2)c1,.,13,.,/,.,.,18,20
Cc1noc(C)c1NC(=O)Nc1ccc2c(c1)C(=O)N([C@H](C)CO)C[C@H](C)[C@H](CN(C)C(=O)Nc1ccc(F)cc1)OCCCC[C@@H](C)O2,/,/,/,.,/,/,/,/
COc1ccc(S(=O)(=O)N(C)C[C@@H]2Oc3ccc(NS(=O)(=O)c4ccc(F)cc4)cc3C(=O)N([C@@H](C)CO)C[C@H]2C)cc1,/,/,/,.,/,/,/,/
SMILES,HDAC3 inhib,MC4R barr agon,MC4R antag cAMP,Yeast UUG start,ALR H2O2 inh,NALP1 yeast inh,MC4R barr conf,MOR-DOR barr ag
COc1ccc(C2c3ccc(O)cc3Oc3ncn4nc(-c5ccccn5)nc4c32)cc1 (stereo not drawn),.,49,.,.,.,.,9.5,.
CC1(Oc2ccc(Cl)cc2)CCN(Cc2ccc(-c3ccccn3)cc2)C1 (stereo not drawn),/,13,.,.,/,/,.,.
CSc1ccc(OC2(C)CCN(Cc3ccc(C(C)C)cc3)C2)cc1 (stereo not drawn),/,12,.,.,/,/,.,.
C[C@@H]1CN([C@@H](C)CO)C(=O)Cc2cc(NS(=O)(=O)c3ccc(F)cc3)ccc2O[C@H]1CN(C)C(=O)NC1CCCCC1,/,/,/,.,/,/,/,/
Cc1sc2ncnc(N3CCC(C(=O)Nc4ccc(S(N)(=O)=O)cc4)CC3)c2c1C,.,.,.,.,.,/,/,/
Cc1sc2ncnc(N3CCC(C(=O)Nc4ccc(C#N)cc4)CC3)c2c1C,.,11,.,/,.,/,.,.
C[C@H]1CN([C@@H](C)CO)C(=O)c2cc(NC(=O)CCN3CCOCC3)ccc2O[C@H]1CN(C)Cc1ccc(Oc2ccccc2)cc1,/,/,/,.,/,/,/,/
O=c1[nH]c(Cn2nnc(-c3ccccc3)n2)nc2scc(-c3ccccc3)c12,.,12,.,.,.,.,.,.
CC(C)(C)OC(=O)N[C@@H](Cc1ccccc1)c1nnc(SCC(=O)c2ccc(Cl)cc2)o1,.,35,.,/,.,.,.,.
COC(=O)COc1ccc2oc(=O)cc(-c3cc4ccccc4o3)c2c1,.,16,.,.,.,.,.,.
Cc1ccc(N2CCN(C3=NC(=O)/C(=C\c4cn[nH]c4-c4ccccc4)S3)CC2)cc1,.,18,.,/,.,.,.,.
Cc1cccc(N2CCN(C3=NC(=O)/C(=C\c4cn[nH]c4-c4ccccc4)S3)CC2)c1,.,16,.,/,.,.,.,.
COc1ccc(S(=O)(=O)Nc2ccc3c(c2)C(=O)N([C@H](C)CO)C[C@H](C)[C@@H](CN(C)C(=O)NC2CCCCC2)OCCCC[C@@H](C)O3)cc1,/,/,/,.,/,/,/,/
C[C@@H]1CN([C@H](C)CO)C(=O)c2cc(C#C[C@@H](C)O)cnc2O[C@H]1CN(C)CC1CCCCC1,/,/,/,.,/,/,/,/
